In PubChem BioAssay AID588354 (The Scripps Research Institute Molecular Screening Center, 2011):
Only a part is listed here, and it is no random draw. Activity calls are given as the source filed them.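 Rule for the calls: active = inhibition above the campaign mean plus 3 SD, with each screening campaign given its own cutoff (cut at about 60% in these data); inactive = the rest.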

Chains of the proteins cited; added tags and fusions are not shown.
UniProt Q15788, whole entry: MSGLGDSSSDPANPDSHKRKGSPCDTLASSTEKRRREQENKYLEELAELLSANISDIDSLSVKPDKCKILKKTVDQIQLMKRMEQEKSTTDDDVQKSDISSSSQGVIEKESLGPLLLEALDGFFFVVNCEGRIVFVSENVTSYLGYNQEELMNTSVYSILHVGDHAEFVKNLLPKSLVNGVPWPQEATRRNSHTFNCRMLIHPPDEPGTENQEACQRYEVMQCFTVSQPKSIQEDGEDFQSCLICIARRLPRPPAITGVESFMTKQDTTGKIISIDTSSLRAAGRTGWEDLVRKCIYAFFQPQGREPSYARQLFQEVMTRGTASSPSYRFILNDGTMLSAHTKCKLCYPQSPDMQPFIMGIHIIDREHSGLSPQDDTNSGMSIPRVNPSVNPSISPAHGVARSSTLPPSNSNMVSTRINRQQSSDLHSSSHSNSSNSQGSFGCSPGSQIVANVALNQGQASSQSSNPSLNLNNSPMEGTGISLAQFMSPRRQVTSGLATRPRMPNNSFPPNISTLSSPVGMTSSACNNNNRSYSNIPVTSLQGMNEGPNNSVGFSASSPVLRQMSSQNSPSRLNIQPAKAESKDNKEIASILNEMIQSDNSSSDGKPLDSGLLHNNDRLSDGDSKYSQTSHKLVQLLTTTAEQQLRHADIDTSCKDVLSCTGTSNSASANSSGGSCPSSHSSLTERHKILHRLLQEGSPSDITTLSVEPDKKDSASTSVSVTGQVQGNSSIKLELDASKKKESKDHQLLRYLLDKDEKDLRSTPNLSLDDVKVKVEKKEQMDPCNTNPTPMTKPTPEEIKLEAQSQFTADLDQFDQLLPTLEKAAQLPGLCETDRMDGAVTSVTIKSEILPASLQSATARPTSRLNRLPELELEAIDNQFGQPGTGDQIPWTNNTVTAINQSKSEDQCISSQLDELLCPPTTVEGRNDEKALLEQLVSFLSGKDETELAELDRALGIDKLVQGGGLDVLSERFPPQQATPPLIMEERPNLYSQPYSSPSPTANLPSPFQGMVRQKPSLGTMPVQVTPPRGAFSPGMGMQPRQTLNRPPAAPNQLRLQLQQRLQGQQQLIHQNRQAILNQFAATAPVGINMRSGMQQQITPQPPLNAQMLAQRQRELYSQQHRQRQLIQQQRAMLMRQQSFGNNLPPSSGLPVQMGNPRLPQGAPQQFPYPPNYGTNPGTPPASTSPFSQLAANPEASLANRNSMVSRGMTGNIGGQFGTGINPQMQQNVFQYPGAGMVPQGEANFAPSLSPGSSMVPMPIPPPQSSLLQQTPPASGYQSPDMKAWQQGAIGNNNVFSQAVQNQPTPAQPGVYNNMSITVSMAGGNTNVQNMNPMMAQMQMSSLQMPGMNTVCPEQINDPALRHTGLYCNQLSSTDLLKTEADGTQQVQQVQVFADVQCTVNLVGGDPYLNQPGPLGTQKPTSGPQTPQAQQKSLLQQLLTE

target: Nuclear receptor coactivator 1 (Homo sapiens) (UniProt Q15788); assay: SRC1 coactivator transcriptional activity inhibitors, primary screen, cell-based, luminescence (AID 588354); conditions: HEK293 GAL4-SRC1 luciferase reporter, at 3.6 µM, hits give high values;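 note: 0% = DMSO treated cells and 100% = gossypol at 36 µM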

Structure (SMILES) | inhibition
O=c1[nH]c2ccccc2n1C1CCN(C(c2cccc3ccccc23)c2nnnn2C2CCCC2)CC1 (configuration not stated) | inactive: 15.7%
COc1cc(C(=O)NCC2(N(C)C)CCCCC2)ccc1OC(F)F | inactive: 3.04%
CCOC(=O)N1CCC(Nc2cccc(C)c2)CC1 | inactive: 1.97%
O=c1[nH]c2ccccc2n1C1CCN(C(c2ccccc2)c2nnnn2C2CCCCC2)CC1 (configuration not stated) | inactive: 27.4%
CCOC(=O)N1CCC(Nc2ccc(F)cc2)CC1 | inactive: -12.2%
COc1ccc(NC2CCN(CCc3ccccc3)CC2)c(OC)c1 | inactive: 1.36%
O=C(NCC1(N2CCCCC2)CCCCC1)c1ccc(F)cc1 | inactive: -0.7%
CCCCOc1ccc(C(=O)NCC2(N3CCOCC3)CCCCC2)cc1 | inactive: 0.17%
O=P1(N(CCCl)CCCl)SCCCS1 | inactive: -9.12%
CCCCn1nnnc1C(c1cc2ccccc2o1)N1CCC(n2c(=O)[nH]c3ccccc32)CC1 (configuration not stated) | inactive: 8.2%
CCOc1ccc(C)cc1CN(CCCl)CCCl | inactive: 9.79%
O=C1CCN(Cc2ccccc2)CC1 | inactive: -4.66%
CC(C)(C)n1nnnc1C(c1ccccc1)N1CCC(n2c(=O)[nH]c3ccccc32)CC1 (configuration not stated) | inactive: -1.75%
CCCCn1nnnc1C(c1ccc(OC)cc1)N1CCC(n2c(=O)[nH]c3ccccc32)CC1 (configuration not stated) | inactive: 13.4%
CCOC(=O)N1CCC(Nc2ccc(OC)cc2)CC1 | inactive: -8.7%
COc1ccc(Cl)cc1C(=O)NCC1(N2CCOCC2)CCCCC1 | inactive: 5.84%
O=c1[nH]c2ccccc2n1C1CCN(C(c2cc3ccccc3o2)c2nnnn2C2CCCCC2)CC1 (configuration not stated) | inactive: 1.09%
O=C(OC1CN2CCC1CC2)C1c2ccccc2Oc2ccccc21 (configuration not stated) | inactive: -18.1%
N#CC1(Nc2ccccc2)CCN(Cc2ccccc2)CC1 | inactive: 5.43%
O=C(NCC1(N2CCCCC2)CCCCC1)c1ccc(Cl)s1 | inactive: -5.39%
O=C(NCC1(N2CCOCC2)CCCCC1)c1cc2ccccc2o1 | inactive: -17.3%
Cc1cc(C)cc(N(C(=O)c2ccccc2)C2CCN(C(=O)OC(C)(C)C)CC2)c1 | inactive: 7.26%

Structure (SMILES) | inhibition
O=c1[nH]c2ccccc2n1C1CCN(C(c2ccccc2OC(F)(F)F)c2nnnn2C2CCCCC2)CC1 (configuration not stated) | inactive: 7.02%
O=C(NCC1(N2CCCCC2)CCCCC1)c1ccc(Cl)nc1 | inactive: -1.41%
Cc1cccc(NC2(C#N)CCN(Cc3ccccc3)CC2)c1 | inactive: 5.22%
CSc1ccccc1C(=O)NCC1(N2CCCCC2)CCCCC1 | inactive: -24.2%
CCCCn1nnnc1C(c1cccs1)N1CCC(n2c(=O)[nH]c3ccccc32)CC1 (configuration not stated) | inactive: 20%
CCCCn1nnnc1C(CC)N1CCC(n2c(=O)[nH]c3ccccc32)CC1 (configuration not stated) | inactive: 13.8%
O=C(NCC1(N2CCCCC2)CCCCC1)c1cccs1 | inactive: -31.2%
O=C(NCC1(N2CCCCC2)CCCCC1)c1ccc(=O)[nH]c1 | inactive: -6.76%
CCC(c1nnnn1C1CCCC1)N1CCC(n2c(=O)[nH]c3ccccc32)CC1 (configuration not stated) | inactive: 7.07%
COc1ccc(C(=O)NCC2(N3CCCCC3)CCCCC2)c(OC)c1OC | inactive: 4.46%
CC(C)(C)OC(=O)N1CCC(N(C(=O)c2ccccc2)c2ccc(F)cc2)CC1 | inactive: 21.9%
COc1ccc(C(=O)NCC2(N3CCCCC3)CCCCC2)cc1 | inactive: -0.08%
CCCOc1ccc(C(=O)NCC2(N(C)C)CCCCC2)cc1OC | inactive: -1.14%
Cc1ccc(C(=O)NCC2(N(C)C)CCCCC2)o1 | inactive: -3.44%
COc1ccc(C(c2nnnn2C2CCCC2)N2CCC(n3c(=O)[nH]c4ccccc43)CC2)cc1 (configuration not stated) | inactive: 14.9%
O=C(NCC1(N2CCCCC2)CCCCC1)c1cncc(Br)c1 | inactive: -11.3%
CN1CCC(Nc2cccc(F)c2)CC1 | inactive: 7.47%
CCCCn1nnnc1C(c1ccnc2ccccc12)N1CCC(n2c(=O)[nH]c3ccccc32)CC1 (configuration not stated) | inactive: 11.6%
O=C(NCC1(N2CCOCC2)CCCCC1)c1cc(F)c(F)cc1Cl | inactive: 6.35%
CCC(c1nnnn1C(C)(C)C)N1CCC(n2c(=O)[nH]c3ccccc32)CC1 (configuration not stated) | inactive: 6.6%
COc1cc(OC)c(C(=O)NCC2(N(C)C)CCCCC2)cc1OC | inactive: -35.3%
CN(C)c1cccc(C(=O)NCC2(N3CCCCC3)CCCCC2)c1 | inactive: -18.1%

Structure (SMILES) | inhibition
COc1ccc(CN(CCCl)CCCl)cc1Cl | inactive: -12.9%
CC(C)c1ccc(NC2CCN(C(=O)OC(C)(C)C)CC2)cc1 | inactive: -104%
CCCCn1nnnc1C(c1ccccc1OC(F)(F)F)N1CCC(n2c(=O)[nH]c3ccccc32)CC1 (configuration not stated) | inactive: 23.6%
CCCCn1nnnc1C(c1cccc2ccccc12)N1CCC(n2c(=O)[nH]c3ccccc32)CC1 (configuration not stated) | inactive: 11.7%
COc1ccc(NC2CCN(C(=O)OC(C)(C)C)CC2)cc1 | inactive: 0.82%
CC(C)c1ccc(C(=O)NCC2(N3CCOCC3)CCCCC2)cc1 | inactive: -135%
CN1CCN(CCOC(=O)C(O)(c2ccccc2)c2ccccc2)CC1 | inactive: 9.41%
O=C(NCC1(N2CCOCC2)CCCCC1)c1cc(=O)[nH]c2ccccc12 | inactive: -0.54%
COc1cc(C(=O)NCC2(N3CCCCC3)CCCCC2)ccc1OC(F)F | inactive: 6.97%
O=C(NCC1(N2CCCCC2)CCCCC1)c1cccc(C(F)(F)F)c1 | inactive: -10.5%
CSc1ccc(C(=O)NCC2(N3CCOCC3)CCCCC2)cc1 | inactive: -10.9%
O=C(NCC1(N2CCCCC2)CCCCC1)c1cccc([N+](=O)[O-])c1 | inactive: 11.1%
N#CC1(Nc2ccccc2)CCN(CCc2ccccc2)CC1 | inactive: -3.28%
O=c1[nH]c2ccccc2n1C1CCN(C(c2ccccc2OC(F)(F)F)c2nnnn2C2CCCC2)CC1 (configuration not stated) | inactive: 4.64%
CCN1CCC(Nc2ccc(Cl)cc2)CC1 | inactive: -25.6%
O=C(NCC1(N2CCCCC2)CCCCC1)c1ccc(OC(F)F)cc1 | inactive: -35.5%
CC(C)(C)n1nnnc1C(c1ccccc1OC(F)(F)F)N1CCC(n2c(=O)[nH]c3ccccc32)CC1 (configuration not stated) | inactive: -20.4%
CC(C)(C)n1nnnc1C(c1cccc2ccccc12)N1CCC(n2c(=O)[nH]c3ccccc32)CC1 (configuration not stated) | inactive: 20.3%
CCCN1CCC(Nc2cc(OC)cc(OC)c2)CC1 | inactive: -12%
O=c1[nH]c2ccccc2n1C1CCN(C(c2ccccc2)c2nnnn2C2CCCC2)CC1 (configuration not stated) | inactive: 9.69%
Cc1cc(N(CCCl)CCCl)ccc1C=O | inactive: 0.93%
c1ccc(CN2CCC(Nc3ccccc3)CC2)cc1 | inactive: -44.1%

Structure (SMILES) | inhibition
CN(C)C1(CNC(=O)c2cccc(C#N)c2)CCCCC1 | inactive: 10.9%
CC(C)(C)OC(=O)N1CCC(N(C(=O)c2ccccc2)c2ccc(Cl)cc2)CC1 | inactive: 0.53%
N#Cc1ccc(C(=O)NCC2(N3CCCCC3)CCCCC2)cc1 | inactive: -26.9%
CCCCn1nnnc1C(c1cccc(OC)c1OC)N1CCC(n2c(=O)[nH]c3ccccc32)CC1 (configuration not stated) | inactive: 11.1%
O=c1[nH]c2ccccc2n1C1CCN(C(c2cccs2)c2nnnn2C2CCCC2)CC1 (configuration not stated) | inactive: 17%
O=C(OC1CN2CCC1CC2)C1c2ccccc2C=Cc2ccccc21 (configuration not stated) | inactive: -2.72%
N/C(=N\O)c1c(N)no[n+]1[O-] | inactive: -1.51%
COc1cccc(C(c2nnnn2C(C)(C)C)N2CCC(n3c(=O)[nH]c4ccccc43)CC2)c1OC (configuration not stated) | inactive: -9.17%
CCOC(=O)N1CCC(Nc2ccc(C)cc2)CC1 | inactive: -5.22%
O=c1[nH]c2ccccc2n1C1CCN(C(c2ccnc3ccccc23)c2nnnn2C2CCCC2)CC1 (configuration not stated) | inactive: 11.4%
COc1ccc(C(=O)NCC2(N3CCOCC3)CCCCC2)cc1OC | inactive: 9.82%
O=c1[nH]c2ccccc2n1C1CCN(C(c2cccs2)c2nnnn2C2CCCCC2)CC1 (configuration not stated) | inactive: 4.45%
O=C(NCC1(N2CCOCC2)CCCCC1)c1cc(Br)ccc1Cl | inactive: 2.95%
COc1cc(C(=O)NCC2(N3CCOCC3)CCCCC2)cc(OC)c1C | inactive: -5.82%
CCCCn1nnnc1C(c1ccccc1)N1CCC(n2c(=O)[nH]c3ccccc32)CC1 (configuration not stated) | inactive: 16.4%
CN1CCC(Nc2ccc(Cl)cc2)CC1 | inactive: -15.8%
CCC(CO)(C(=O)OC1CN2CCC1CC2)c1ccccc1 (configuration not stated) | inactive: 6.96%
COc1cccc(C(=O)N(c2cc(C)cc(C)c2)C2CCN(C(=O)OC(C)(C)C)CC2)c1 | inactive: -3.93%
COc1cccc(C(c2nnnn2C2CCCC2)N2CCC(n3c(=O)[nH]c4ccccc43)CC2)c1OC (configuration not stated) | inactive: -38.2%
COc1cc(OC)cc(C(=O)NCC2(N3CCOCC3)CCCCC2)c1 | inactive: -32.3%
CCCOc1ccc(C(=O)NCC2(N(C)C)CCCCC2)cc1 | inactive: 13.2%
O=c1[nH]c2ccccc2n1C1CCN(C(c2cc3ccccc3o2)c2nnnn2C2CCCC2)CC1 (configuration not stated) | inactive: 1.29%

Structure (SMILES) | inhibition
O=C(O)C1(Nc2ccccc2)CCN(Cc2ccccc2)CC1 | inactive: 6.05%
CC(C)(C)OC(=O)N1CCC(Nc2ccccc2)CC1 | inactive: -3.47%
CN1CCC(Nc2ccc(F)c(Cl)c2)CC1 | inactive: 3.08%
CCOc1ncccc1C(=O)NCC1(N2CCOCC2)CCCCC1 | inactive: -2.78%
Cn1c(=O)[nH]cc(N(CCCl)CCCl)c1=O | inactive: -10.2%
CN(C)c1ccc(C(=O)NCC2(N3CCCCC3)CCCCC2)cc1 | inactive: -49.5%
O=C(NCC1(N2CCCCC2)CCCCC1)c1ccco1 | inactive: -2.98%
CC(C)(C)n1nnnc1C(c1ccnc2ccccc12)N1CCC(n2c(=O)[nH]c3ccccc32)CC1 (configuration not stated) | inactive: -2.17%
COc1ccc(C(c2nnnn2C2CCCCC2)N2CCC(n3c(=O)[nH]c4ccccc43)CC2)cc1 (configuration not stated) | inactive: -3.26%
CCN1CCC(Nc2cccc(F)c2)CC1 | inactive: -8.34%
Cc1ccccc1NC1(C#N)CCN(Cc2ccccc2)CC1 | inactive: -12.3%
Cc1ccc(NC2(C#N)CCN(Cc3ccccc3)CC2)cc1 | inactive: 5.62%
Fc1ccccc1NC1CCN(Cc2ccccc2)CC1 | inactive: -34.6%
Cc1ccc(C(=O)NCC2(N3CCCCC3)CCCCC2)o1 | inactive: -6.29%
O=c1[nH]c2ccccc2n1C1CCN(C(c2ccnc3ccccc23)c2nnnn2C2CCCCC2)CC1 (configuration not stated) | inactive: 10.1%
COc1cc(OC)cc(C(=O)NCC2(N3CCCCC3)CCCCC2)c1 | inactive: 3.3%
CCC(c1nnnn1C1CCCCC1)N1CCC(n2c(=O)[nH]c3ccccc32)CC1 (configuration not stated) | inactive: 1.87%
CC(=O)N(c1ccccc1)C1CCNCC1 | inactive: 8.66%
COc1cccc(C(c2nnnn2C2CCCCC2)N2CCC(n3c(=O)[nH]c4ccccc43)CC2)c1OC (configuration not stated) | inactive: 24.9%
